Assay results as given in patent US10214520B2, “Substituted azaspiro(4.5)decane derivatives” (priority 2014, dated 2019).
Where two headings read alike, the source gives them in different places.

Chains of the proteins cited; added tags and fusions are not shown. Lines headed by an entry give the natural chain unless they say otherwise; changes in a name come on top.
UniProt P41146: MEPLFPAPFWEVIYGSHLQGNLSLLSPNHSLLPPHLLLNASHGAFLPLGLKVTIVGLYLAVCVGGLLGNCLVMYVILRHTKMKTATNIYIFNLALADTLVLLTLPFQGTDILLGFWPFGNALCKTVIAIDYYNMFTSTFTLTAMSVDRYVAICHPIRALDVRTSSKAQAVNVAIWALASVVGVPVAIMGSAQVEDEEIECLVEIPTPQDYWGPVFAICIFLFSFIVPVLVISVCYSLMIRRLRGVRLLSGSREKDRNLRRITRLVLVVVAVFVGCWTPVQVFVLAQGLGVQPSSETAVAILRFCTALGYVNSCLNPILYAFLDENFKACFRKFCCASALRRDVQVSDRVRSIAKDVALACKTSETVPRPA
UniProt P35372, whole entry, looked up: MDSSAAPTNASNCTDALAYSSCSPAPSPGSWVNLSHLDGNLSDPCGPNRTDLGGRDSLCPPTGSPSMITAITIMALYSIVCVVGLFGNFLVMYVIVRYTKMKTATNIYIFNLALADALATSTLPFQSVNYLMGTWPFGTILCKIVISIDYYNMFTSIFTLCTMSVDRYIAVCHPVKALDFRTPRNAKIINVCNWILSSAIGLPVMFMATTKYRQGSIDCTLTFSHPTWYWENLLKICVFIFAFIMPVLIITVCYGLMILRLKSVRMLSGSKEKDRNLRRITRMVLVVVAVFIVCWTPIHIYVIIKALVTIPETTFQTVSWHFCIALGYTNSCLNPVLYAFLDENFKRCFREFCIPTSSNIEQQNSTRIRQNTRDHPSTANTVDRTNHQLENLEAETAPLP

Key:
ORL1 receptor = ORL1 receptor (Homo sapiens, UniProt P41146); conditions: for ORL1 % Inhibition @ 1 μM / % inhibition (ORL1) [1 μM]: test concentration 1 μM
human μ opiate receptor = human μ opiate receptor (Homo sapiens, UniProt P35372); assay: μ opiate receptor binding assay with [3H]-naloxone, membrane preparation of CHO-K1 cells (WGA-SPA beads); conditions: for MOP % Inhibition @1 μM / % inhibition (μ) [1 μM]: test concentration 1 μM
[1] = read-out: Ki (ORL1) mean [μm], mean
[2] = read-out: Ki (μ) mean [μm], mean

| Molecule | Ki (ORL1 receptor; read-out: ORL1 Ki) | ORL1 % Inhibition @ 1 μM (ORL1 receptor) | Ki (human μ opiate receptor; read-out: MOP Ki) | MOP % Inhibition @1 μM (human μ opiate receptor) | Ki (ORL1 receptor; [1]) | % inhibition (ORL1) [1 μM] (ORL1 receptor) | Ki (human μ opiate receptor; [2]) | % inhibition (μ) [1 μM] (human μ opiate receptor) |
| --- | --- | --- | --- | --- | --- | --- | --- | --- |
| Cis-4-(8-Dimethylamino-3-oxo-8-pyridin-2-yl-2-azaspiro[4.5]decan-2-yl)-2,2-dimethyl-butyramide | 175 nM | 57% | 270 nM | 75% | – | – | – | – |
| CN(C)[C@]1(c2ccccc2)CC[C@]2(CC1)CC(=O)N(CC(C)(C)C(=O)NCCc1cncnc1)C2 | 770 nM | 28% | – | 89% | – | – | – | – |
| CN(C)[C@]1(c2ccccc2)CC[C@]2(CC1)CC(=O)N(CCC(C)(C)C(=O)NCCO)C2 | 76.5 nM | 72% | 31.5 nM | 93% | – | – | – | – |
| CN(C)[C@]1(c2ccccc2)CC[C@]2(CC1)CC(=O)N(CCCC(=O)N1CCN(S(C)(=O)=O)CC1)C2 | 275 nM | 37% | 240 nM | 72% | – | – | – | – |
| CN(C)C1(c2cnccn2)CCC2(CC1)CC(=O)N(CC(N)=O)C2 (stereo not drawn) | – | 6% | 2200 nM | 36% | – | – | – | – |
| CN(C)C1(CC2CCCC2)CCC2(CCN(C(=O)c3ccccc3)C2)CC1 (stereo not drawn) | – | – | – | – | 130 nM | 64% | 17 nM | 99.5% |
| CCCNC(=O)CN1C[C@]2(CC[C@@](c3ccccc3)(N(C)C)CC2)CC1=O | 2.4 nM | 95% | 1.8 nM | 99% | – | – | – | – |
| Cc1ccc(C2(N(C)C)CCC3(CCN(C(=O)c4ccccc4)C3)CC2)s1 (stereo not drawn) | – | – | – | – | 77 nM | 70.5% | 26 nM | 92% |
| CN(C)C1(c2cccs2)CCC2(CCN(Cc3ccncc3F)C2)CC1 (stereo not drawn) | – | – | – | – | 15 nM | 82% | 2.9 nM | 98% |
| CN(C)C1(c2ccccc2)CCC2(CC1)CN(C(=O)OC(C)(C)C)C(=O)C2Cc1ccccc1 (stereo not drawn) | 8.6 nM | 87% | 9.3 nM | 98% | – | – | – | – |
| Cis-2-[8-Dimethylamino-8-(3-methoxy-propyl)-3-oxo-2-azaspiro[4.5]decan-2-yl]-acetamide | – | 1% | – | 17% | – | – | – | – |
| CN(C)[C@]1(c2ccccc2)CC[C@]2(CC1)CC(=O)N(CCC(C)(C)C(=O)Nc1ccncc1)C2 | 29.5 nM | 85% | 8 nM | 86% | – | – | – | – |
| Cis-4-[8-Dimethylamino-8-(3-methoxy-propyl)-3-oxo-2-azaspiro[4.5]decan-2-yl]-2,2-dimethyl-butyramide 2,2,2-trifluoro acetate | – | 1% | 2800 nM | 32% | – | – | – | – |
| CN(C)C1(c2ccc(Cl)s2)CCC2(CCN(C(=O)c3ccccc3)C2)CC1 (stereo not drawn) | – | – | – | – | 64.5 nM | 68.5% | 10.7 nM | 95.5% |
| CN(C)C1(c2cccs2)CCC2(CCN(Cc3ccc(F)cn3)C2)CC1 (stereo not drawn) | – | – | – | – | 1.75 nM | 94.5% | 1.7 nM | 100% |
| CN(C)[C@]1(c2ccccc2)CC[C@]2(CC1)CC(=O)N(c1ccccc1)C2 | 9.2 nM | 88% | 4.2 nM | 98% | – | – | – | – |
| COC(=O)CN1CC2(CCC(c3ccccn3)(N(C)C)CC2)CC1=O (stereo not drawn) | 345 nM | 37% | 585 nM | 58% | – | – | – | – |
| CN(C)[C@]1(c2ccccc2)CC[C@]2(CC1)CC(=O)N(CC(C)(C)C(=O)NCCS(C)(=O)=O)C2 | 300 nM | 31% | 315 nM | 72% | – | – | – | – |
| CN(C)C1(c2ccccc2)CCC2(CCN(C(=O)Cc3ccncc3)C2)CC1 (stereo not drawn) | 45.5 nM | 76% | 25.5 nM | 98% | – | – | – | – |
| CN(C)[C@]1(c2ccccc2)CC[C@]2(CC1)CC(=O)N(CC(=O)NCc1cncnc1)C2 | 240 nM | 45% | 86.5 nM | 91% | – | – | – | – |

| Molecule | Ki (ORL1 receptor; read-out: ORL1 Ki) | ORL1 % Inhibition @ 1 μM (ORL1 receptor) | Ki (human μ opiate receptor; read-out: MOP Ki) | MOP % Inhibition @1 μM (human μ opiate receptor) | Ki (ORL1 receptor; [1]) | % inhibition (ORL1) [1 μM] (ORL1 receptor) | Ki (human μ opiate receptor; [2]) | % inhibition (μ) [1 μM] (human μ opiate receptor) |
| --- | --- | --- | --- | --- | --- | --- | --- | --- |
| COc1ncc(N2CC3(CCC(c4ccccc4)(N(C)C)CC3)CC2=O)cn1 (stereo not drawn) | 102 nM | – | 140 nM | – | – | – | – | – |
| CN(C)[C@]1(c2ccccc2)CC[C@]2(CC1)CC(=O)N(CCCNC(=O)Cc1ccon1)C2 | 53.5 nM | – | 56.3 nM | – | – | – | – | – |
| Cc1ccc(C2(N(C)C)CCC3(CCN(C(=O)c4cccnc4)C3)CC2)s1 (stereo not drawn) | – | – | – | – | 295 nM | 36% | 270 nM | 56.5% |
| COc1ccc(CCC(=O)N2CCC3(CCC(c4ccccc4)(N(C)C)CC3)C2)cc1 (stereo not drawn) | 283 nM | 53% | 128 nM | 90% | – | – | – | – |
| CN(C)[C@]1(c2ccccn2)CC[C@]2(CC1)CC(=O)N(CCC(=O)O)C2 | – | −6% | 6580 nM | 14% | – | – | – | – |
| CN(C)[C@]1(c2ccccc2)CC[C@]2(CC1)CC(=O)N(CCC(=O)Nc1cccnc1)C2 | 102 nM | 69% | 72 nM | 98% | – | – | – | – |
| Cis-2-(8-Methylamino-3-oxo-8-pyridin-2-yl-2-azaspiro[4.5]decan-2-yl)-acetamide | – | 12% | – | 2% | – | – | – | – |
| O=C(c1ccccc1)N1CCC2(CCC(c3ccccc3)(N3CCC3)CC2)C1 (stereo not drawn) | – | – | – | – | 1110 nM | 21.5% | 1110 nM | 34.5% |
| CCCCC1(N(C)C)CCC2(CC1)CC(=O)N(Cc1ccccc1)C2 (stereo not drawn) | – | – | – | – | 1490 nM | 6.5% | – | 23% |
| CN(C)[C@]1(c2ccccc2)CC[C@]2(CC1)CC(=O)N(c1ccccc1C#N)C2 | 190 nM | 47% | 15.5 nM | 96% | – | – | – | – |
| CN(C)[C@]1(c2ccccc2)CC[C@]2(CC1)CC(=O)N(CCC(C)(C)C(=O)NCCCO)C2 | 230 nM | 56% | 81 nM | 86% | – | – | – | – |
| CN(C)C1(c2ccccc2)CCC2(CCN(C(=O)CCc3ccccn3)C2)CC1 (stereo not drawn) | 6.7 nM | 76% | 5.1 nM | 100% | – | – | – | – |
| CNC(=O)CCN1C[C@]2(CC[C@@](c3ccccc3)(N(C)C)CC2)CC1=O | 48 nM | 66% | 68.5 nM | 85% | – | – | – | – |
| COCCNC(=O)C(C)(C)CCN1C[C@]2(CC[C@@](c3ccccc3)(N(C)C)CC2)CC1=O | 240 nM | 59% | 70.5 nM | 94% | – | – | – | – |
| CN(C)C1(c2ccccc2)CCC2(CC1)CC(=O)N(c1cccc(C#N)c1)C2 (stereo not drawn) | 23 nM | 85% | 9.7 nM | 99% | – | – | – | – |
| Cis-4-(8-Methylamino-3-oxo-8-pyridin-2-yl-2-azaspiro[4.5]decan-2-yl)-butyramide 2,2,2-trifluoro acetate | – | 4% | – | 27% | – | – | – | – |
| cis-4-[2-(8-Dimethylamino-3-oxo-8-phenyl-2-azaspiro[4.5]decan-2-yl)-ethyl]-1,1-dioxo-thiane-4-carboxylic acid 2,2,2-trifluoro acetate | – | 8% | 125 nM | 88% | – | – | – | – |
| CN(C)[C@]1(c2ccccc2)CC[C@]2(CC1)CC(=O)N(CCC(C)(C)C(=O)Nc1ccncn1)C2 | 77 nM | 74% | 5.4 nM | 95% | – | – | – | – |
| CN(C)[C@]1(c2ccccc2)CC[C@]2(CC1)CC(=O)N(CC(=O)Nc1ccncn1)C2 | 610 nM | 28% | 275 nM | 70% | – | – | – | – |
| CN(C)C1(c2ccccc2)CCC2(CCN(C(=O)c3cccnc3)C2)CC1 (stereo not drawn) | – | – | – | – | 245 nM | 35% | 390 nM | 51% |
